In brackets after ≈: the same amount, converted by molar mass. Bounds are passed on as bounds.

This passage reports MIC results from DBAASP.

For test [1], the system named is Escherichia coli K-12. The test is described as follows: ≥ marks a high value that may be exact or a test limit, other limits are often not marked, values filed in µg/mL are converted to µM.
Test [2] relates to Staphylococcus aureus ATCC 12600. Described as above.

As for `CC(C)C[C@H](NC(=O)[C@H](Cc1ccccc1)NC(=O)[C@H](C)NC(=O)CNC(=O)[C@H](Cc1c[nH]c2ccccc12)NC(=O)[C@H](CC(N)=O)NC(=O)[C@@H](N)CC(C)C)C(=O)N[C@@H](CCCCN)C(=O)N[C@@H](Cc1cnc[nH]1)C(=O)N[C@@H](Cc1ccccc1)C(=O)N[C@@H](Cc1ccccc1)C(=O)N[C@@H](CCCCN)C(=O)O` [LNWGAFLKHFFK], the MIC was 16 µM (≈ 24.1 µg/mL) in test [1] and not below 64 µM in test [2].

In test [1], `CC[C@H](C)[C@H](NC(=O)[C@H](C)NC(=O)CNC(=O)[C@H](Cc1c[nH]c2ccccc12)NC(=O)[C@H](CC(N)=O)NC(=O)[C@@H](N)CC(C)C)C(=O)N[C@@H](CCCCN)C(=O)N[C@@H](CCCCN)C(=O)N[C@@H](Cc1cnc[nH]1)C(=O)N[C@H](C(=O)N[C@H](C(=O)N[C@@H](CCCCN)C(=O)O)[C@@H](C)CC)[C@@H](C)CC` [LNWGAIKKHIIK] showed an MIC not below 128 µM.

The MIC is the smallest concentration in the dilution series that meets the test's criterion for growth inhibition. The low end stands for inhibition by little substance, the high end for a need for much substance.
